Consider one variant from IntAct's records for PubMed 20329707.

Sequences and labels used below:
B1: Single-stranded DNA-binding protein (Escherichia coli (strain K12)), P0AGE0 (parent)
chain: MASRGVNKVILVGNLGQDPEVRYMPNGGAVANITLATSESWRDKATGEMKEQTEWHRVVLFGKLAEVASEYLRKGSQVYIEGQLRTRKWTDQSGQDRYTTEVVVNVGGTMQMLGGRQGGGAPAGGNIGGGQPQGGWGQPQQPQGGNQFSGGAQSRPQQSAPAAPSNEPPMDFDDDIPF

Variants of B1 are the subject of one test. To be noted: with holc_ecoli holC.
In the case of MASRGVNKVILVGNLGQDPEVRYMPNGGAVANITLATSESWRDKATGEMKEQTEWHRVVLFGKLAEVASEYLRKGSQVYIEGQLRTRKWTDQSGQDRYTTEVVVNVGGTMQMLGGRQGGGAPAGGNIGGGQPQGGWGQPQQPQGGNQFSGGAQSRPQQSAPAAPSNEPPMDFDDDISF [P177S], the “effect of a mutation on the interaction” value was “disrupting interaction”.

Another test covers variants of B1. To be noted: with pria_ecoli priA.
For the variant MASRGVNKVILVGNLGQDPEVRYMPNGGAVANITLATSESWRDKATGEMKEQTEWHRVVLFGKLAEVASEYLRKGSQVYIEGQLRTRKWTDQSGQDRYTTEVVVNVGGTMQMLGGRQGGGAPAGGNIGGGQPQGGWGQPQQPQGGNQFSGGAQSRPQQSAPAAPSNEPPMDFDDDISF [P177S], the “effect of a mutation on the interaction” value is given as “disrupting interaction”.
